For 1 substance, CC50 results are on record in PMC13198257, “An aerosolized dual-action autotaxin inhibitor-PPARγ agonist for the treatment of pulmonary fibrosis” (Cell Reports Medicine, 2026).

In general, CC50 refers to the concentration at which the toxic effect on the cells reaches its halfway point. A high value points to lower toxicity to the cells.

This data set concerns HepG2. The experiment in a line: Cytotoxicity in HepG2 hepatocytes. Format: cell-based, human.

“2-[[2-Ethyl-6-[4-[2-(3-hydroxyazetidin-1-yl)-2-oxoethyl]piperazin-1-yl]-8-methylimidazo[1,2-a]pyridin-3-yl]methylamino]-4-(4-fluorophenyl)thiazole-5-carbonitrile [GLPG1690, reference compound]” showed a 50% cytotoxic concentration (CC50) of 18.5 µM.
